Reference: PMC10034449, “FDA-approved Abl/EGFR/PDGFR kinase inhibitors show potent efficacy against pandemic and seasonal influenza A virus infections of human lung explants” (iScience, 2023)

Columns and labels:
NL11 = assay type: cell-based, influenza A virus
[1] = tested on: A/Netherlands/602/09 (NL09)
[2] = tested on: A/Netherlands/241/11 (NL11)

SMILES | reduction of infectivity (anti-NP staining normalized to tissue area) (NL11) | relative infectivity [1] | other results
CC#CC(=O)N1CCC[C@H]1c1nc(-c2ccc(C(=O)Nc3ccccn3)cc2)c2c(N)nccn12 [AC, Acalabrutinib] | > 50% and ~50% |  | 
COc1cc(Nc2c(C#N)cnc3cc(OCCCN4CCN(C)CC4)c(OC)cc23)c(Cl)cc1Cl [BO, Bosutinib] | > 50% and ~50% |  | 
CNC(=O)c1ccc(Nc2ncc(C(F)(F)F)c(NCc3nccnc3N(C)S(C)(=O)=O)n2)cc1 [DF, Defactinib] | > 50% and ~50% | 180% | 
C=CC(=O)N1CCC[C@@H](n2nc(-c3ccc(Oc4ccccc4)cc3)c3c(N)ncnc32)C1 [IB, Ibrutinib] |  |  | effect on infectivity (NL11): limited effects on infectivity; increase of infectivity (NL11): ~7%
Cc1cn(-c2cc(NC(=O)c3ccc(C)c(Nc4nccc(-c5cccnc5)n4)c3)cc(C(F)(F)F)c2)cn1 [NI, Nilotinib] |  |  | effect on infectivity (NL11): limited effects on infectivity
N#CC[C@H](C1CCCC1)n1cc(-c2ncnc3[nH]ccc23)cn1 [RX, Ruxolitinib] |  | 203% | relative infectivity [2]: 116%
CN1CCN(CCOc2cc(OC3CCOCC3)c3c(Nc4c(Cl)ccc5c4OCO5)ncnc3c2)CC1 [SA, Saracatinib] | > 50% and ~50% | 90% | 
C[C@@H]1CCN(C(=O)CC#N)C[C@@H]1N(C)c1ncnc2[nH]ccc12 [TF, Tofacitinib] |  | 217% | relative infectivity [2]: 112%

Several values for one entry are separate records, joined by “and”; a condition that tells them apart may be missing. Equal entries are not always repeated.
